Measured values: patent US6953855B2 (priority 1998, dated 2005)

The chains behind the UniProt entries cited, without tags or fusion partners. Residues count along the entry.
UniProt P30926, 22-498: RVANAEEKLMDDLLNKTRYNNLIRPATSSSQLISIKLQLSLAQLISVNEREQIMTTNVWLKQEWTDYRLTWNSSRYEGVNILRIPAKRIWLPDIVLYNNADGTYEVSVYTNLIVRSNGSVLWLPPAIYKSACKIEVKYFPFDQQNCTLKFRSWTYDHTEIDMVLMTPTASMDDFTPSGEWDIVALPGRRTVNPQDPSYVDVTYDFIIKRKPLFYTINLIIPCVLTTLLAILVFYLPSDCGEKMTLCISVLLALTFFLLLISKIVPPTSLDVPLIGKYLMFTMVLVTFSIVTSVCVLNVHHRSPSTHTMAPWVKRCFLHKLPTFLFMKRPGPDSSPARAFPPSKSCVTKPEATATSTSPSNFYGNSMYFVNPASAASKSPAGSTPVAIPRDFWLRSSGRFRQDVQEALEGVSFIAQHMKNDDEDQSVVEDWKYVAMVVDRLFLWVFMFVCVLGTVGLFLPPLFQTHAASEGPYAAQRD
UniProt P32297, 32-505: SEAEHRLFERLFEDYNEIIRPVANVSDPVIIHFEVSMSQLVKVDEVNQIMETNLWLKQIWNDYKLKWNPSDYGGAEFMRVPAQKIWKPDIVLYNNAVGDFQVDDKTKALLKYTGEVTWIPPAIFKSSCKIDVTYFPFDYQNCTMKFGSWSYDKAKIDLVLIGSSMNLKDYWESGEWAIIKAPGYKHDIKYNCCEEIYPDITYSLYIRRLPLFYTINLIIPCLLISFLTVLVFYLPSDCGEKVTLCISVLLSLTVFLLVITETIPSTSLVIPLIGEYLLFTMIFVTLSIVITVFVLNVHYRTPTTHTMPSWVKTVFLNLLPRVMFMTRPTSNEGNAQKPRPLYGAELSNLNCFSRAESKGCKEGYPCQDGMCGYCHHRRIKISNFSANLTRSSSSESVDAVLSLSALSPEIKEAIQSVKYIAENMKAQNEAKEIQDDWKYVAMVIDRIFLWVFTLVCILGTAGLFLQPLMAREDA

Molecular target: ganglion-type receptors (α3β4 subtype in human SHSY-5Y clonal cells) (Homo sapiens, UniProt P30926+P32297)
Test: cell-based
Details: SH-SY5Y, read-out: agonist activity, % of nicotine's response (human ganglion)

Structure (SMILES): O=C(Nc1ccc(Br)cc1)OC1C2CCN(CC2)C1Cc1cccnc1 (centres unmarked) [Compound 1, 2-((3-pyridinyl)methyl)-1-azabicyclo[2.2.2]oct-3-yl N-(4-bromophenyl)carbamate]
- activation at 100 µM: 1 to 15%

Structure (SMILES): O=C(Nc1ccc(F)cc1)OC1C2CCN(CC2)C1Cc1cccnc1 (centres unmarked) [Compound 3, 2-((3-pyridinyl)methyl)-1-azabicyclo[2.2.2]oct-3-yl N-(4-fluorophenyl)carbamate]
- activation at 100 µM: 1 to 15%

Structure (SMILES): COc1ccc(NC(=O)OC2C3CCN(CC3)C2Cc2cccnc2)cc1 (centres unmarked) [Compound 4, 2-((3-pyridinyl)methyl)-1-azabicyclo[2.2.2]oct-3-yl N-(4-methoxyphenyl)carbamate]
- activation at 100 µM: 1 to 15%

Structure (SMILES): CSc1ccc(NC(=O)OC2C3CCN(CC3)C2Cc2cccnc2)cc1 (centres unmarked) [Compound 5, 2-((3-pyridinyl)methyl)-1-azabicyclo[2.2.2]oct-3-yl N-(4-methylthiophenyl)carbamate]
- activation at 100 µM: 1 to 15%

Structure (SMILES): O=C(NC1C2CCN(CC2)C1Cc1cccnc1)c1ccc(F)cc1 (centres unmarked) [Compound 8, N-(2-((3-pyridinyl)methyl)-1-azabicyclo[2.2.2]oct-3-yl)-4-fluorobenzamide]
- activation at 100 µM: 1 to 15%

Structure (SMILES): O=C(NC1C2CCN(CC2)C1Cc1cccnc1)c1cc2ccccc2o1 (centres unmarked) [Compound 9, N-(2-((3-pyridinyl)methyl)-1-azabicyclo[2.2.2]oct-3-yl)benzofuran-2-carboxamide]
- activation at 100 µM: 1 to 15%

Structure (SMILES): O=C(NC1C2CCN(CC2)C1Cc1cccnc1)c1ccc(Br)cc1 (centres unmarked) [Compound 10, N-(2-((3-pyridinyl)methyl)-1-azabicyclo[2.2.2]oct-3-yl)-4-bromobenzamide]
- activation at 100 µM: 1 to 15%

Structure (SMILES): O=C(NC1C2CCN(CC2)C1Cc1cccnc1)c1ccccc1 (centres unmarked) [Compound 13, N-(2-((3-pyridinyl)methyl)-1-azabicyclo[2.2.2]oct-3-yl)benzamide]
- activation at 100 µM: 1 to 15%

Structure (SMILES): COc1cccc(C(=O)NC2C3CCN(CC3)C2Cc2cccnc2)c1 (centres unmarked) [Compound 14, N-(2-((3-pyridinyl)methyl)-1-azabicyclo[2.2.2]oct-3-yl)-3-methoxybenzamide]
- activation at 100 µM: 1 to 15%

Structure (SMILES): O=C(NC1C2CCN(CC2)C1Cc1cccnc1)c1cccc(Br)c1 (centres unmarked) [Compound 15, N-(2-((3-pyridinyl)methyl)-1-azabicyclo[2.2.2]oct-3-yl)-3-bromobenzamide]
- activation at 100 µM: 1 to 15%

Structure (SMILES): O=C(Nc1ccccc1)NC1C2CCN(CC2)C1Cc1cccnc1 (centres unmarked) [Compound 16, N-phenyl-N′-(2-((3-pyridinyl)methyl)-1-azabicyclo[2.2.2]oct-3-yl)urea]
- activation at 100 µM: 1 to 15%

Structure (SMILES): O=C(Nc1ccc(Oc2ccccc2)cc1)NC1C2CCN(CC2)C1Cc1cccnc1 (centres unmarked) [Compound 17, N-(4-phenoxyphenyl)-N′-(2-((3-pyridinyl)methyl)-1-azabicyclo[2.2.2]oct-3-yl)urea]
- activation at 100 µM: 1 to 15%

Structure (SMILES): CSc1ccc(NC(=O)NC2C3CCN(CC3)C2Cc2cccnc2)cc1 (centres unmarked) [Compound 18, N-(4-methylthiophenyl)-N′-(2-((3-pyridinyl)methyl)-1-azabicyclo[2.2.2]oct-3-yl)urea]
- activation at 100 µM: 1 to 15%

Structure (SMILES): O=C(Nc1cccc(F)c1)NC1C2CCN(CC2)C1Cc1cccnc1 (centres unmarked) [Compound 19, N-(3-fluorophenyl)-N′-(2-((3-pyridinyl)methyl)-1-azabicyclo[2.2.2]oct-3-yl)urea]
- activation at 100 µM: 1 to 15%

Structure (SMILES): O=C(Nc1ccc(Br)cc1)NC1C2CCN(CC2)C1Cc1cccnc1 (centres unmarked) [Compound 20, N-(4-bromophenyl)-N′-(2-((3-pyridinyl)methyl)-1-azabicyclo[2.2.2]oct-3-yl)urea]
- activation at 100 µM: 1 to 15%

Structure (SMILES): COc1ccccc1NC(=O)NC1C2CCN(CC2)C1Cc1cccnc1 (centres unmarked) [Compound 21, N-(2-methoxyphenyl)-N′-(2-((3-pyridinyl)methyl)-1-azabicyclo[2.2.2]oct-3-yl)urea]
- activation at 100 µM: 1 to 15%

Structure (SMILES): COc1ccc(NC(=O)NC2C3CCN(CC3)C2Cc2cccnc2)c(OC)c1 (centres unmarked) [Compound 22, N-(2,4-dimethoxyphenyl)-N′-(2-((3-pyridinyl)methyl)-1-azabicyclo[2.2.2]oct-3-yl)urea]
- activation at 100 µM: 1 to 15%

Structure (SMILES): O=C(Nc1ccc(Cl)c(Cl)c1)NC1C2CCN(CC2)C1Cc1cccnc1 (centres unmarked) [Compound 23, N-(3,4-dichlorophenyl)-N′-(2-((3-pyridinyl)methyl)-1-azabicyclo[2.2.2]oct-3-yl)urea]
- activation at 100 µM: 1 to 15%

Structure (SMILES): COc1ccc(NC(=O)NC2C3CCN(CC3)C2Cc2cccnc2)cc1 (centres unmarked) [Compound 24, N-(4-methoxyphenyl)-N′-(2-((3-pyridinyl)methyl)-1-azabicyclo[2.2.2]oct-3-yl)urea]
- activation at 100 µM: 1 to 15%

Structure (SMILES): CN(C)c1ccc(NC(=O)NC2C3CCN(CC3)C2Cc2cccnc2)cc1 (centres unmarked) [Compound 25, N-(4-dimethylaminophenyl)-N′-(2-((3-pyridinyl)methyl)-1-azabicyclo[2.2.2]oct-3-yl)urea]
- activation at 100 µM: 1 to 15%

Structure (SMILES): CN(C(=O)Nc1ccccc1)C1C2CCN(CC2)C1Cc1cccnc1 (centres unmarked) [Compound 26, N-phenyl-N′-methyl-N′-(2-((3-pyridinyl)methyl)-1-azabicyclo[2.2.2]oct-3-yl)urea]
- activation at 100 µM: 1 to 15%

Structure (SMILES): CN(C(=O)Nc1ccc(Br)cc1)C1C2CCN(CC2)C1Cc1cccnc1 (centres unmarked) [Compound 27, N-(4-bromophenyl)-N′-methyl-N′-(2-((3-pyridinyl)methyl)-1-azabicyclo [2.2.2]oct-3-yl)urea]
- activation at 100 µM: 1 to 15%

Structure (SMILES): O=C(C=Cc1ccccc1)NC1C2CCN(CC2)C1Cc1cccnc1 (centres unmarked) [Compound 28, N-(2-((3-pyridinyl)methyl)-1-azabicyclo[2.2.2]oct-3-yl)3-phenylprop-2-enamide]
- activation at 100 µM: 1 to 15%

Structure (SMILES): O=C(C=Cc1ccc(Cl)cc1)NC1C2CCN(CC2)C1Cc1cccnc1 (centres unmarked) [Compound 29, N-(2-((3-pyridinyl)methyl)-1-azabicyclo[2.2.2]oct-3-yl)-3-(4-chlorophenyl)prop-2-enamide]
- activation at 100 µM: 1 to 15%

Structure (SMILES): O=C(C=Cc1ccc(Br)cc1)NC1C2CCN(CC2)C1Cc1cccnc1 (centres unmarked) [Compound 30, N-(2-((3-pyridinyl)methyl)-1-azabicyclo[2.2.2]oct-3-yl)-3-(4-bromophenyl)prop-2-enamide]
- activation at 100 µM: 1 to 15%

Structure (SMILES): O=C(C=Cc1cccc(O)c1)NC1C2CCN(CC2)C1Cc1cccnc1 (centres unmarked) [Compound 31, N-(2-((3-pyridinyl)methyl)-1-azabicyclo[2.2.2]oct-3-yl)-3-(3-hydroxyphenyl)prop-2-enamide]
- activation at 100 µM: 1 to 15%

Structure (SMILES): COc1cccc(C=CC(=O)NC2C3CCN(CC3)C2Cc2cccnc2)c1 (centres unmarked) [Compound 32, N-(2-((3-pyridinyl)methyl)-1-azabicyclo[2.2.2]oct-3-yl)-3-(3-methoxyphenyl)prop-2-enamide]
- activation at 100 µM: 1 to 15%

Structure (SMILES): O=C(C=Cc1ccccc1F)NC1C2CCN(CC2)C1Cc1cccnc1 (centres unmarked) [Compound 33, N-(2-((3-pyridinyl)methyl)-1-azabicyclo[2.2.2]oct-3-yl)-3-(2-fluorophenyl)prop-2-enamide]
- activation at 100 µM: 1 to 15%

Structure (SMILES): O=C(C=Cc1ccccc1O)NC1C2CCN(CC2)C1Cc1cccnc1 (centres unmarked) [Compound 34, N-(2-((3-pyridinyl)methyl)-1-azabicyclo[2.2.2]oct-3-yl)-3-(2-hydroxyphenyl)prop-2-enamide]
- activation at 100 µM: 1 to 15%
